Reference: PubChem BioAssay AID540263 (National Center for Advancing Translational Sciences (NCATS), 2011)
In all, about 340,000 compounds went through this assay and about 100 (0.029%) were called active. Not shown: some 8% with an inconclusive outcome. Calls come from the whole dose curve. Shown is part of a subset that was picked to be rich in actives. Entries that show only a call come without a potency.

Amino acid sequences for entries named in this document (tags omitted).
UniProt Q14974, whole entry, looked up: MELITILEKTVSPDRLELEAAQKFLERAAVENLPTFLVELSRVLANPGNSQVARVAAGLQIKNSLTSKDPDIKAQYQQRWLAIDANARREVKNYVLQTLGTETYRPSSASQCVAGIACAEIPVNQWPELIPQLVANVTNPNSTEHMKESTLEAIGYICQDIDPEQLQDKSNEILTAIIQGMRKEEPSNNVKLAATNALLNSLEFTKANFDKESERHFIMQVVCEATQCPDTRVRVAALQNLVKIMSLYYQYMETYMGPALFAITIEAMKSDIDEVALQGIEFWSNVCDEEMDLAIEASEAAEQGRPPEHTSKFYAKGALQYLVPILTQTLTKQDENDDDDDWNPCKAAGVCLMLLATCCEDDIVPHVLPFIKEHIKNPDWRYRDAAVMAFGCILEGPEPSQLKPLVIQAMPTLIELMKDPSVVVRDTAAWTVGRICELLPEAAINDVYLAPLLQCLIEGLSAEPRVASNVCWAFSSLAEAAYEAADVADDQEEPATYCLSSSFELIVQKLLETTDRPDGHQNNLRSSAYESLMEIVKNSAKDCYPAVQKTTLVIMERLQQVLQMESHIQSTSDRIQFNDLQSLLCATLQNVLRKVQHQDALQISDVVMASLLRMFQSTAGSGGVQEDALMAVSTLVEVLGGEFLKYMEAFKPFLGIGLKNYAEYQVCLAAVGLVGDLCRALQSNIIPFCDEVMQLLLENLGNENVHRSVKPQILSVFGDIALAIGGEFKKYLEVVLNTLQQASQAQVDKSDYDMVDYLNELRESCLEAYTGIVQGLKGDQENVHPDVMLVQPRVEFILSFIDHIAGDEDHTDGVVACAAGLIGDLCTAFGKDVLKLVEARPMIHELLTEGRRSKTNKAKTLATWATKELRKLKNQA

Target: Importin subunit beta-1 (Homo sapiens) (UniProt Q14974)
Test: qHTS Assay for Inhibitors of Rango (Ran-regulated importin-beta cargo) - Importin beta complex formation; note: nearly all actives have a fitted effect of over 15% in size
Settings: Rango CFP/YFP FRET sensor + importin beta, 45 min; series mostly up to 92.2 µM
Source text: NIH Molecular Libraries Probe Production Centers Network [MLPCN] NIH Chemical Genomics Center [NCGC] MLPCN Grant: R03 MH090808-01A1 Assay Submitter (PI): Petr Kalab NCGC Assay Overview: The small GTPase Ran regulates transport of macromolecules between the nucleus and the cytoplasm (nuclear transport) and has important functions in mitotic spindle assembly, nuclear envelope (NE) formation and nuclear pore complex (NPC) assembly. RanGTP gradient is thought to promote spindle assembly by providing a spatial clue to microtubule nucleation and Aurora A activation. Because the localized release and binding of importin alpha cargo relays this spatial clue to SAFs, inhibitors of the Rango - importin beta complex can then be used in further understanding their role in cell cycle specifically in mitosis progression. […] Activation of Aurora A has been linked to different types of cancer and a number of Aurora kinase inhibitors are being developed as potential canter therapeutics therefore, identified inhibitors of this complex could be developed into potential anti-mitotic probes for cancer treatment. Purified recombinant proteins Rango and importin beta were provided by the assay submitter. The assay used a fluorescence resonance energy transfer (FRET) Rango biosensor that contains the IBB of human snurportin 1 flanked by yellow fluorescent protein (EYFP) at the amino terminus and cerulean CFP10 at the carboxy terminus. […] Inhibitors will therefore be identified based on the ability to interfere with the FRET signal decrease. DMSO treated and no importin beta (buffer only) wells were used as negative and positive controls respectively. FRET readings were obtained at two time points. FRET reading prior to importin beta addition (pre-read) were used flag potential compound interference; FRET reading after importin beta addition (post-read) were used to identify inhibitors using the FRET ratio parameter.
NCGC Assay Protocol Summary: Two and a half uL/well of Rango-buffer solution (50 nM Rango, 1x PBS, 1mM DTT, 0.02% Tween-20, 0.1% BSA final concentrations) was dispensed into 1536-well assay plates (Greiner, solid black medium-binding plates) with Aurora Discovery BioRAPTR Flying Reagent Dispenser (FRD; Beckton-Dickenson). Compound solution (23 nL) was transferred to the assay plate using Kalypsys pin tool equipped with a 1536-pin tool and incubated at room temperature for 5 min followed by a FRET pre-read using the PerkinElmer Envision plate reader. Two and a half uL/well of Importin beta - buffer solution (0.125 microM importin beta, 1x PBS, 1mM DTT, 0.02% Tween-20, 0.1% BSA final concentrations) were then added and incubated at room temperature giving a final reaction volume of 5uL. After 45min FRET post-read was obtained via the Envision plate reader using the same optics and settings as the pre-read (CFP/YFP optimized dual optical module D450/D505; excitation mirror CFP 430/24 nm; and emission filters CFP 486/10 nm and YFP 530/10 nm).
Potency is the fitted concentration of half-maximal effect; tags give direction and shape of the fitted curve.

Compound | Potency
CCN(CC)S(=O)(=O)c1cccc(NC(=O)c2ccc(S(=O)(=O)N3CCCC3)cc2)c1 | inactive
O=C(NNc1nc(N2CCCC2)nc(N2CCCC2)n1)c1ccccc1 | inactive
O=C(NCC1CCCCC1)NCC1CCCCC1 | inactive
Cc1cc(OCCCC(=O)Nc2cc(S(=O)(=O)N3CCOCC3)ccc2N2CCOCC2)ccc1Cl | inactive
C(#CCN1CCOCC1)CCCN1CCOCC1 | inactive
c1ccc(C(=NNc2nc3ccccc3s2)c2ccccn2)cc1 | inactive
O=C1C(Cl)=C(Oc2ccccc2)C(=O)c2ccccc21 | inactive
O=C(O)C1C2C=CC(O2)C1C(=O)Nc1ccccn1 (centres undefined) | inactive
O=C1CC[C@@H]2CC3(C[C@@H]4CCN1[C@H]24)Nc1cc([N+](=O)[O-])ccc1NC3=NC1CCCCC1 (some centres undefined) | inactive
COc1cccc2c1C(=O)c1c(O)c3c(c(O)c1C2=O)CC(O)(C(C)=NNC(=O)c1ccc(Cl)c(Cl)c1)CC3OC1CC(N)C(O)C(C)O1 (centres undefined) | 14.6 µM (active)
Cc1cccc(NC(=S)N2CCC(C(=O)c3ccc(F)cc3)CC2)c1 | inactive
CCC1([N+](=O)[O-])COC(c2ccc(C)cc2)OC1 (centres undefined) | inactive
COC(=O)c1ccc(NCc2cc(O)ccc2O)cc1 | inactive
CC(=O)c1ccc(NC(=O)C(C)OC(=O)c2ccc(NS(=O)(=O)c3ccc4[nH]c(=O)[nH]c4c3)cc2)cc1 (centres undefined) | inactive
CCN(CC)CCOc1ccc2c(c1)C(=NNC(=O)c1ccccn1)c1cc(OCCN(CC)CC)ccc1-2 | 46.1 µM (active)
Cc1cccc(OCC(=O)NCCCNC(=O)c2ccccn2)c1 | inactive
CCOc1cc2ccccc2cc1C(=O)Nc1ccccn1 | inactive
COC(=O)c1ccc(CNC(=O)Cn2cc(C)c(=O)[nH]c2=O)cc1 | inactive
CC(Nc1ccc([N+](=O)[O-])cc1[N+](=O)[O-])c1ccccc1 (centres undefined) | inactive
CCCN(C(=O)COC(=O)CNS(=O)(=O)c1ccc(NC(C)=O)cc1)C1CCS(=O)(=O)C1 (centres undefined) | inactive
CC(=NNC(=S)N1CCCCCC1)c1ccccn1 | inactive
CCOc1ccc(CCNC(=O)COC(=O)C2CCN(S(=O)(=O)c3ccccc3)CC2)cc1OCC | inactive

Compound | Potency
COc1ccc(/C(C)=N/NC(=O)c2ccc3nc[nH]c3c2)cc1 | inactive
CC(=NNC(=O)c1ccc2nc[nH]c2c1)c1ccc(Br)cc1 | 51.7 µM (active)
O=C(N/N=C/c1ccc(Cl)c(Cl)c1)c1ccc2nc[nH]c2c1 | inactive
COc1ccc(CCN2CC(C(=O)OCC(=O)NCc3ccccc3Cl)CC2=O)cc1OC (centres undefined) | inactive
COc1cc2c(cc1OC)C1C(=O)c3cc(OS(C)(=O)=O)c(OC)cc3C1N(C)C2=O (centres undefined) | inactive
O=C(Cc1ccc(NC(=O)C2CCCN(C(=O)C3CCCCC3)C2)cc1)Nc1cccc(C(=O)N2CCCCC2)c1 (centres undefined) | inactive
CCOC(=O)[C@H]1[C@H]2COc3ccc(Br)cc3[C@@H]2N2C(=O)CN(C)C(=O)[C@@]12C | inactive
O=C(NCCc1ccccc1)c1cccc(NC(=O)c2ccccc2)c1 | inactive
CC(=O)CSc1nc(CCc2ccccc2)c(C#N)c(=O)[nH]1 | inactive
COC1C(CO)OC(n2cnc3c(=S)nc(N)[nH]c32)C1O (centres undefined) | inactive
COc1ccc(Cn2cc(CN3CCS(=O)(=O)N(Cc4ccc(-c5cccc(Cl)c5)cc4)C(C)C3=O)nn2)cc1 (centres undefined) | inactive
CCN1C[C@@H]2[C@@H]3C(=O)N(Cc4ccccc4)C(=O)[C@@H]3[C@](C)(C1=O)N2C(=O)c1ccc(C(C)(C)C)cc1 | inactive
Cc1cc2c(cc1C)NC1(C[C@H]3CCC(=O)N4CC[C@@H](C1)[C@@H]34)C(=NC(C)(C)CC(C)(C)C)N2 (some centres undefined) | inactive
O=C(OCCOc1ccccc1F)c1cc(S(=O)(=O)N2CCOCC2)ccc1F | inactive
O=C1/C(=C\c2ccc([N+](=O)[O-])cc2)CS(=O)(=O)C/C1=C/c1ccc([N+](=O)[O-])cc1 | inactive
FC(F)(F)c1ccc(-c2cccc3c2C2CC3CCN2Cc2ccccc2)cc1 (centres undefined) | inactive
CCOc1ccc(S(=O)(=O)N2CCN(C(=O)c3oc4ccccc4c3C)CC2)cc1 | inactive
Cc1nc(N)nc(Cl)c1CCC1OCCO1 | inactive
Cn1c(=O)[nH]c2c(c(C(=O)O)nn2C)c1=O | inactive
O=C(CC(=O)c1cccnc1)c1ccccc1 | inactive
O=C(O)C(c1cccs1)C1(O)CCCCC1 (centres undefined) | inactive
CC(=NNC(=O)c1ccncc1)c1ccc(Cl)c(Cl)c1 | inactive

Compound | Potency
Cc1ccc2c(O)c(Cc3ccccc3)c(=O)[nH]c2n1 | inactive
COc1ccc(OC)c(Cc2cnc3nc(N)nc(N)c3c2C)c1 | inactive
O=C1NC(=O)C(CCc2ccccc2)(c2ccccc2)N1 (centres undefined) | inactive
O=S(=O)(Nc1ccc2ccccc2c1)N1CCCCC1 | inactive
NC(=O)C1(Nc2ccc([N+](=O)[O-])cc2)CCCC1 | inactive
CCOC(=O)N1CCN(Cc2nc3ccc([N+](=O)[O-])cc3c(=O)n2-c2cccc(OC)c2)CC1 | 65.1 µM (active)
COc1cccc(-n2nc(C(=O)N3CCN(Cc4ccccc4)CC3)c3ccccc3c2=O)c1 | inactive
CCOC(=O)N1CCN(Cc2nc3cc(NC(C)=O)ccc3n2C)CC1 | inactive
C=CCn1c(=O)n(C)c2c(=O)n(C)c(=O)n(C)c21 | inactive
CCc1nnc(NC(=O)c2cc(S(=O)(=O)N3CCN(CC)CC3)ccc2Cl)s1 | inactive
O=[N+]([O-])c1ccc(N2CCOCC2)cc1 | inactive
COC1=CC(=O)OC(c2ccc(OC)cc2)C1 (centres undefined) | inactive
C[C@@H]1NS(=O)(=O)c2cc(Cl)ccc2O[C@@H]1c1ccccc1 | inactive
Cc1onc(-c2c(F)cccc2Cl)c1C(=O)Nc1cccc(S(=O)(=O)N2CCCCC2)c1 | inactive
COc1cc(O)c2c(=O)c3c(O)c(O)ccc3oc2c1OC | inactive
COc1ccccc1C(=O)c1ccccc1C(=O)c1ccccc1 | inactive
CCc1c(Nc2ccccc2Cl)nc(N)[nH]c1=O | inactive
O=C1NCC(c2ccccc2)(c2ccccc2)C(=O)N1 | inactive
CC(=O)OC1CCC2(C)C(=CCC3C4CC(=O)N(O)C(=O)C4(C)CCC32)C1 (centres undefined) | inactive
O=c1[nH]c(=S)[nH]c(O)c1/C=C1\C=Nc2ccccc21 | inactive
